This assay concerns H1703 Sunitinib resistant line C (H1703 SRc). As to the kind of experiment: cells. Particulars: Homo sapiens, NCI-H1703, read-out: Sunitinib IC50(μM). The method, then:
GraphPad Prism 4.01 was used to calculate IC50 values. […] GenoSensor GenoExplorer™ microRNA Expression System (Sanger miRNA Registry version 14 containing probes for 904 mature miRNAs and 450 pre-miRNAs) was used to screen miR expression. Differences in miRs expression between the parent and resistant cells were identified using at test with Benjamini-Hochberg correction and validated by qPCR. A score was calculated for each miRNA to determine whether a miRNA can predict SR.

With `CCN(CC)CCNC(=O)c1c(C)[nH]c(/C=C2\C(=O)Nc3ccc(F)cc32)c1C` [Sunitinib, N-[2-(diethylamino)ethyl]-5-[(Z)-(5-fluoro-1,2-dihydro-2-oxo-3H-indol-3-ylidine)methyl]-2,4-dimethyl-1H-pyrrole-3-carboxamide], the IC50 was 2.09 µM.
